Experimental findings from ChEMBL document CHEMBL3272065 (J Med Chem, 1977) are described below.

A short description of data set [1]: Half life of the compound at pH 7.4 at 37 degC at 1 x 10' -2 M. To be noted: pH 7.4, 10000 µM.
A short description of data set [2]: Hydrolysis of the compound at pH 7.4 at 37 degC assessed as first-order rate coefficient at 1 x 10' -2 M. To be noted: buffer, pH 7.4, 10000 µM.
A short description of data set [3]: Hydrolysis of the compound at pH 7.4 at 37 degC assessed as first-order rate coefficient at 1.33 x 10' -2 M. Conditions: buffer, pH 7.4, 13300 µM.
A short description of data set [4]: Half life of the compound at pH 7.4 at 37 degC at 1.33 x 10' -2 M. To be noted: pH 7.4, 13300 µM.
Data set [5] in a line: Half life of the compound at pH 7.4 at 37 degC at 6.55 x 10' -3 M. To be noted: pH 7.4, 6550 µM.
Data set [6] can be described thus: Hydrolysis of the compound at pH 7.4 at 37 degC assessed as first-order rate coefficient at 6.55 x 10' -3 M. Conditions: buffer, pH 7.4, 6550 µM.
The nature of data set [7]: Hydrolysis of the compound at pH 7.4 at 37 degC assessed as first-order rate coefficient at 6.21 x 10' -3 M. Conditions: buffer, pH 7.4, 6210 µM.
Data set [8] is described as follows: Half life of the compound at pH 7.4 at 37 degC at 6.21 x 10' -3 M. To be noted: pH 7.4, 6210 µM.
The nature of data set [9]: Half life of the compound at pH 7.4 at 37 degC at 1.20 x 10' -2 M. To be noted: pH 7.4, 12000 µM.
The nature of data set [10]: Hydrolysis of the compound at pH 7.4 at 37 degC assessed as first-order rate coefficient at 1.20 x 10' -2 M. Conditions: buffer, pH 7.4, 12000 µM.
The nature of data set [11]: Hydrolysis of the compound at pH 7.4 at 37 degC assessed as first-order rate coefficient at 6.57 x 10' -3 M. To be noted: buffer, pH 7.4, 6570 µM.
The nature of data set [12]: Half life of the compound at pH 7.4 at 37 degC at 9.03 x 10' -3 M. To be noted: pH 7.4, 9030 µM.
A short description of data set [13]: Half life of the compound at pH 7.4 at 37 degC at 6.57 x 10' -3 M. To be noted: pH 7.4, 6570 µM.
Data set [14] is described as follows: Hydrolysis of the compound at pH 7.4 at 37 degC assessed as first-order rate coefficient at 1.03 x 10' -2 M. Conditions: buffer, pH 7.4, 10300 µM.
The nature of data set [15]: Hydrolysis of the compound at pH 7.4 at 37 degC assessed as first-order rate coefficient at 9.03 x 10' -3 M. To be noted: buffer, pH 7.4, 9030 µM.
The nature of data set [16]: Half life of the compound at pH 7.4 at 37 degC at 1.03 x 10' -2 M. To be noted: pH 7.4, 10300 µM.
Data set [17] can be described thus: Half life of the compound at pH 7.4 at 37 degC at 1.31 x 10' -2 M. Conditions: pH 7.4, 13100 µM.
A short description of data set [18]: Hydrolysis of the compound at pH 7.4 at 37 degC assessed as first-order rate coefficient at 1.31 x 10' -2 M. Conditions: buffer, pH 7.4, 13100 µM.
A short description of data set [19]: Half life of the compound at pH 5.4 at 37 degC at 6.56 x 10' -3 M. To be noted: pH 5.4, 6560 µM.
The nature of data set [20]: Hydrolysis of the compound at 23.5 to 37.0 degC assessed as activation energy at 6.56 x 10' -3 M. To be noted: 6560 µM.
Data set [21] is described as follows: Hydrolysis of the compound at pH 2.6 at 37 degC assessed as first-order rate coefficient at 6.56 x 10' -3 M. Conditions: buffer, pH 2.6, 6560 µM.
The nature of data set [22]: Hydrolysis of the compound at 296.7 K assessed as first-order rate coefficient at 6.56 x 10' -3 M.
The nature of data set [23]: Hydrolysis of the compound at pH 5.4 at 37 degC assessed as first-order rate coefficient at 6.56 x 10' -3 M. Conditions: buffer, pH 5.4, 6560 µM.
Data set [24] can be described thus: Half life of the compound at pH 2.6 at 37 degC at 6.56 x 10' -3 M. Conditions: pH 2.6, 6560 µM.
A short description of data set [25]: Hydrolysis of the compound at 310.2 K assessed as first-order rate coefficient at 6.56 x 10' -3 M. To be noted: 6560 µM.
A short description of data set [26]: Half life of the compound at pH 7.4 at 37 degC at 6.56 x 10' -3 M. To be noted: pH 7.4, 6560 µM.
Data set [27] in a line: Hydrolysis of the compound at 302.2 K assessed as first-order rate coefficient at 6.56 x 10' -3 M. Conditions: 6560 µM.
Data set [28] in a line: Hydrolysis of the compound at pH 7.4 at 37 degC assessed as first-order rate coefficient at 6.56 x 10' -3 M. To be noted: buffer, pH 7.4, 6560 µM.

For `O=C(CCSCCCl)Nc1ccc(P(=O)(O)O)cc1`, in [1], the t1/2 was 2.33 min. Also, the K in data set [2] is 4.8 ×10⁻³ /s.
Take `O=C(CCCSCCCl)Nc1ccc(P(=O)(O)O)cc1`: the K came to 5.6 ×10⁻³ /s in data set [3], 8.9 ×10⁻³ /s in data set [6] and 6.8 ×10⁻³ /s in [2]. In addition, the t1/2 in [4] came to 2 min; in [5], 1.3 min; in [1], 1.67 min.
For `O=C(CCCSCCCl)Nc1ccc(O)cc1`, the K worked out at 1 ×10⁻² /s in [7] and 9.4 ×10⁻³ /s in data set [10]. Moreover, the t1/2 is 1.15 min in data set [8] and 1.23 min in [9].
Regarding `O=C(CCSCCCl)Nc1ccc([As](=O)(O)O)cc1`, the K in data set [11] was 9.5 ×10⁻³ /s; in [14], 7 ×10⁻³ /s; in data set [15], 7.6 ×10⁻³ /s; in data set [18], 5.6 ×10⁻³ /s. The t1/2 in data set [12] was 1.5 min; in data set [13], 1.22 min; in data set [16], 1.65 min; in data set [17], 2 min.
For `O=C(CCCSCCCl)Nc1ccc([As](=O)(O)O)cc1`, the t1/2 in data set [19] was 1.22 min; in [24], 1.67 min; in data set [26], 0.567 min; in [17], 1.47 min. Moreover, in data set [20], the Ea was determined as 23.3 kcal/mol. In addition, the K in [21] was determined as 6.6 ×10⁻³ /s; in data set [22], 3.48 ×10⁻³ /s; in data set [23] it was 9.4 ×10⁻³ /s; in data set [25] it was 2.02 ×10⁻² /s; in data set [27], 7.75 ×10⁻³ /s; in data set [28], 2 ×10⁻² /s. In [18], the K worked out at 7.8 ×10⁻³ /s.
